{"source": "patent US20220202859A1", "about": "“CANCER TREATMENT USING CD38 INHIBITOR AND/OR LENALIDOMIDE AND T-CELLS EXPRESSING A CHIMERIC ANTIGEN RECEPTOR” (CRISPR THERAPEUTICS AG, priority 2020, published 2022)", "system": "MM.1S tumors", "assay": "Lenalidomide plus anti-BCMA CAR-T cells in MM.1S subcutaneous tumor model", "conditions": "2 & 3 weeks after CAR-T dosing"}
{"molecule": "Nc1cccc2c1CN(C1CCC(=O)NC1=O)C2=O", "note": "(stereo not shown) [Lenalidomide]", "values": [{"measurement": "numbers of CAR-T cells in mouse blood", "result": "significantly increase the numbers of the CAR-T cells in mouse blood in a dose dependent manner"}]}
